Values of other authors as cited in patent US8916150B2 (priority 2009, dated 2014).

How the values were obtained:
[1] = single dose of 50 mg of zinc; human adults
mice = details: 500 mg Zn/L of water for up to 14 months

In the case of zinc sulfate, the “nausea and vomiting after single dose” value [1] is listed as “induces nausea and vomiting”.
For zinc, the toxicity in mice (mice) is given as “not show significant effects”.
For zinc oxide, the “nausea and vomiting after single dose” value [1] is listed as “causes such symptoms in only a small percentage of individuals”.
